Test results published in patent publication US7183068B2, “Methods of manufacturing glucose measuring assemblies with hydrogels” (Animas Technologies, LLC, priority 1999, dated 2007).

Test: Adsorption of Nipastat paraben components from hydrogel by gel retaining layer, HPLC of gel extract
Format: physicochemical
Conditions: Gel + GRL, 9 Days at 4° C., individual samples 1-5
Experimental: Nipastat®-containing hydrogels were formulated with the appropriate buffer salts under standard conditions, from which samples were taken for analysis. […] The hydrogels were cut using a ¾ inch punch to generate the sample disks to assay. Each disk was added to 5 mL of acetonitrile/water (30% ACN, v/v) and the Nipastat® biocide was extracted for 1 hour while shaking on an orbital shaker at 100 rpm. The extract was then filtered through a 0.2 μm membrane prior to HPLC separation and UV detection at 254 nm.
Reverse phase HPLC chromatography was performed using a Waters 3.9 mm×15 cm Nova-Pak C-18 column (Milford, Mass.) operating at a flow rate of between about 1.0 to 2.0 mL/min. at 35° C. The eluent was monitored by UV at 254 nm using a Shimadzu SPD-10AU UV-Visible spectrometer (Kyoto, Japan). Samples 10 μL in volume were injected into the column equilibrated in 30% ACN in water, and the following 20-minute gradient program was performed: • 1. Initial time of injection: 30% ACN/70% water at a flow rate of 1 mL/min • 2. Linear Gradient from 30% ACN to 80% ACN for 9.0 minutes (1 mL/min) • 3. Linear Gradient from 80% ACN to 100% ACN for 0.5 minutes (1 mL/min) • 4. 100% ACN for 4.5 minutes (1 mL/min) • 5. Linear Gradient from 100% ACN to 30% ACN for 0.5 minutes at a flow rate of 2 mL/min • 6.30% ACN for 5.5 minutes at a flow rate of 1 mL/min […]

## CCCOC(=O)c1ccc(O)cc1 [Propyl, p-hydroxybenzoic acid propyl ester]
  HPLC peak intensity of paraben extracted from hydrogel: 12662
